scFv variants of Ab-91 (heavy chain) against a SARS-CoV-2 spike peptide

All variants were tested on one target, the spike HR2 peptide PDVDLGDISGINAS (SARS-CoV-2).

Parent scFv Ab-91: VL joined to VH by a 15-residue (Gly4Ser)3 linker. Changes lie in the heavy chain CDRs alone.
VL: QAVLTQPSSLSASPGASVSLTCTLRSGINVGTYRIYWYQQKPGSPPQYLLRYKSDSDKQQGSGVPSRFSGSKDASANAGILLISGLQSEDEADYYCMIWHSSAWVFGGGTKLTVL
VH: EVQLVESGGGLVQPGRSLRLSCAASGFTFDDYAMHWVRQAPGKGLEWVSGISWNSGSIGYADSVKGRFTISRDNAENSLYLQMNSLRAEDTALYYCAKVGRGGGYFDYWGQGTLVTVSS

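AAYL51 was designed without a model: most single CDR substitutions and a random sample of double and triple ones. Affinity was read by AlphaSeq, a pooled yeast mating assay with surface-displayed partners. Pairs that bind mate more often; barcode pairs of the diploids are counted by sequencing. Scores were corrected for input abundance and mapped to Kd with protein pairs of known affinity run in the same pool. There are three technical replicates.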

The parent's heavy chain CDRs are GFTFDDYAMH, GISWNSGSIGYADSVK, VGRGGGYFDY; each variant's own CDRs replace them letter for letter.
Numbers give log10(Kd / nM), so 0 is 1 nM and 3 is 1 µM. Smaller is tighter.
The mean shown is taken over the replicates in which the pair was detected.
"nd" marks a missing value. The strain was present, yet no cells mated with the target were sequenced in any replicate, which points to weak or no binding.
Order: sorted from the lowest average up, undetected variants last.
Nonspecific signal, from three strains lacking the peptide, appeared in 21% of pairings of library AAYL51, centred on 4.54 (5% of these signals below 3.26); values are not corrected for it.

1.19 (3 of 3 replicates) for GFTFDDYAMH | GISWNSGSIGYADSVK | VGQGMGYFDY.
1.46 (3 of 3 replicates) for GFTFDDYAMH | GISLNSCSIGYADSVK | VGRGGGYSDY.
2.28 (3 of 3 replicates) for GFTFDDYAMH | GISWQSGMIGYADTVK | VGRGGGYFDY.
2.83 (1 of 3 replicates) for GFTFDDYAAH | GISWNSSSIGYADSVM | VGRGGGYFDY.
2.90 (2 of 3 replicates) for GFTFDSYAMH | GISWNSGEIGYADSVK | VGRGGGYFDY.
3.58 (1 of 3 replicates) for GFTFDDFAMH | GISRNSGSIGYADSVK | VGRGGGYFDG.
4.11 (2 of 3 replicates) for GFAFDDYAMH | GISWNSGSIGYADSVK | VGRGGGYFPT.
4.15 (1 of 3 replicates) for GFTFDDYAMH | GISWNSGSIGYADCVK | VGRGDSYFDY.
4.33 (2 of 3 replicates) for GFTFDDYAMH | DVSWNSGNIGYADSVK | VGRGGGYFDY.
4.44 (1 of 3 replicates) for GFTFDDYAMH | GISWNSGSIGGPFSVK | VGRGGGYFDY.
4.46 (3 of 3 replicates) for GFTFDDYAMH | GISWNSGKIGYADAVK | VGRGGGYFDY.
4.55 (3 of 3 replicates) for GFTFDDYAMH | GDSWNSRSIGYADSIK | VGRGGGYFDY.
4.60 (2 of 3 replicates) for GKTFDDYAMH | GISWNSGSIGYADSVY | VGRGGGYFDY.
4.70 (1 of 3 replicates) for GFTFDDYAMH | GISWNSGSIGYADSFG | VGRIGGYFDY.
4.81 (1 of 3 replicates) for GFTFDDYAMH | GISWNSGSIIYADSVK | TGRGGGYFDY.
4.84 (1 of 3 replicates) for GFTFDMYAMH | GISWNLGSAGYADSVK | VGRGGGYFDY.
4.85 (1 of 3 replicates) for GFTFDDYAMH | GISWNSDSIGEADSVY | VGRGGGYFDY.
4.90 (2 of 3 replicates) for GFTFDDYAMS | GISWHSGSIGYADSVK | VGRSGGYFDY.
4.91 (2 of 3 replicates) for RFTFDDYAMH | GIMWNSGSIGYEDSVK | VGRGGGYFDY.
4.92 (2 of 3 replicates) for GFRFDDYAHH | FISWNSGSIGYADSVK | VGRGGGYFDY.
4.97 (2 of 3 replicates) for GFTNDDYAMH | GISWNSGSIGYADSVK | VGWGGGWFDY.
5.00 (2 of 3 replicates) for GFTFDKYAMH | GIDWNSGSIGYADSLK | VGRGGGYFDY.
5.01 (1 of 3 replicates) for QFTFDDYAMH | GISWNSGSIGYADSVK | VGRGGGNFDR.
5.02 (1 of 3 replicates) for GFTFDDYAMH | GISWNSGSIGYKDSVK | VGRALGYFDY.
5.09 (2 of 3 replicates) for LFTFDDYAMH | GISWFSGSIGYYDSVK | VGRGGGYFDY.
5.11 (1 of 3 replicates) for GFTFDDYAMH | GISWNSGSIGYAQSVK | AGRGGGYFDI.
5.34 (2 of 3 replicates) for GFTFDDYAMH | GISWNSGSMGDADSVK | VGRGEGYFDY.
5.41 (1 of 3 replicates) for GFTQDDYAMH | GISWNSGSIFYADSVK | VGRGPGYFDY.
5.44 (2 of 3 replicates) for GFYFDDYAMH | GISWNSGSIGYNDSVK | VARGGGYFDY.
6.32 (1 of 3 replicates) for GFTFDDYAMH | TDSWPSGSIGYADSVK | VGRGGGYFDY.
6.37 (3 of 3 replicates) for GFTFDDRAYH | GISWVSGSIGYADSVK | VGRGGGYFDY.
nd (0 of 3 replicates) for GFTFDDYAMH | GCSVNSGSIGYADSVK | VGRGGGTFDY.
nd (0 of 3 replicates) for GFTFDWYAMH | GISWNSGSIGKADSVK | VGLGGGYFDY.
nd (0 of 3 replicates) for GFTFDDYAMH | GISWNSGSIGYADSVK | VGTGGGGFGY.
nd (0 of 3 replicates) for GFAFDDYAMH | GISWWSGSIGYMDSVK | VGRGGGYFDY.
nd (0 of 3 replicates) for GFTFEDYAMH | GISWNSGSIRYADSVK | VGRGGGYFVY.
nd (0 of 3 replicates) for GHTFDDWAMH | GISWNSGSIFYADSVK | VGRGGGYFDY.
nd (0 of 3 replicates) for GFTFDDYAMH | GIVWNSGSIGYADSGK | VGREGGYFDY.
nd (0 of 3 replicates) for GFTFDDYAKH | GISWNSGHIGYADSVK | VYRGGGYFDY.
nd (0 of 3 replicates) for NFTFDDYAMH | GISWNSGSIFYADSVY | VGRGGGYFDY.
nd (0 of 3 replicates) for GLTFDDYAMH | GISWNSGSIGYADQVK | VLRGGGYFDY.
nd (0 of 3 replicates) for GFTFDDYAMH | GLSWNNGSIGYADSVK | NGRGGGYFDY.
nd (0 of 3 replicates) for GFTFDDYAMH | GASWASGSIGYANSVK | VGRGGGYFDY.
nd (0 of 3 replicates) for GFTFDDYAMH | GISCNSGSIGYADSVK | VGRGGGYFYW.
nd (0 of 3 replicates) for GMTFDDYAMH | GISWNSGSIGYADSHK | VGRGGGYFDA.
nd (0 of 3 replicates) for GFLFDDYAMT | GISWNSGSIGYADSVK | VGRGTGYFDY.

Picked from the list: the 3 lowest averages where every replicate gave a value.

{"CDR-H1": "GFTFDDYAMH", "CDR-H2": "GISWNSGSIGYADSVK", "CDR-H3": "VGQGMGYFDY", "mean, log10 nM": "1.19", "seen in": "3 of 3"}
{"CDR-H1": "GFTFDDYAMH", "CDR-H2": "GISLNSCSIGYADSVK", "CDR-H3": "VGRGGGYSDY", "mean, log10 nM": "1.46", "seen in": "3 of 3"}
{"CDR-H1": "GFTFDDYAMH", "CDR-H2": "GISWQSGMIGYADTVK", "CDR-H3": "VGRGGGYFDY", "mean, log10 nM": "2.28", "seen in": "3 of 3"}

Data: MIT Lincoln Laboratory AlphaSeq set, Engelhart et al. 2022, doi:10.1038/s41597-022-01779-4, as distributed in FLAb.